Data published in patent US8329950B2, “Process for preparation of trans 4-(3,4-Dichlorophenyl)-1,2,3,4-tetrahydro-1Napthalenamine” (Sunovion Pharmaceuticals Inc., priority 2005, dated 2012).

Sequences of proteins named here, by UniProt entry; tags and fusion partners are left off.
UniProt P31652, whole entry: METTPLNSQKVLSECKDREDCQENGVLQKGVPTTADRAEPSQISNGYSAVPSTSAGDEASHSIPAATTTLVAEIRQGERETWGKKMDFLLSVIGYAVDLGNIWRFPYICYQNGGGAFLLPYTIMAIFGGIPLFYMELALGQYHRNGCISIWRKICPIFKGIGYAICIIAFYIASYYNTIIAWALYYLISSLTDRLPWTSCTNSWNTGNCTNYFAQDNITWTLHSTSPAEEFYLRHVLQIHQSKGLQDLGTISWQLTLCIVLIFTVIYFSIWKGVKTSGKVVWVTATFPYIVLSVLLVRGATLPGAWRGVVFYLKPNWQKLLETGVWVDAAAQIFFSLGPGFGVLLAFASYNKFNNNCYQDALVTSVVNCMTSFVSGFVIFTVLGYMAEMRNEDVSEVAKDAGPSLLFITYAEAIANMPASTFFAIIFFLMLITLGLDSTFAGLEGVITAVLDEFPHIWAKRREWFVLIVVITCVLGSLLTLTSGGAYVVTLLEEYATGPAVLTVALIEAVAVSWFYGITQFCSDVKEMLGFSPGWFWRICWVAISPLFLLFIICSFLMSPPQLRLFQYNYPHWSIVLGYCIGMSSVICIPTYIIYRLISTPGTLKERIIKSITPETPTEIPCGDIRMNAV

Target: T1, functional uptake of serotonin (5-HT) (Rattus norvegicus, UniProt P31652)
T1 construct: synaptosomes isolated in a 0.32 M sucrose buffer from a male Wistar rat cortex; from tissue; host or cells: male Wistar rat cortex (whole brain) synaptosomes
Experiment: Serotonin functional uptake assay in rat synaptosomes
Type: biochemical
Details: Table 6; tested initially at 10 μM

CNCCCC1c2ccccc2C=Cc2ccccc21 [protriptyline]
inhibition of 5-HT uptake: — (— <50% inhibition)
